For the assay, the system named is patient-derived NK cells. Kind of assay: NK cell receptor expression after culture of PBMCs with IL-2. It is filed as cell-based, human. The conditions noted are these: PBMCs from CMML patients cultured 72h; IL-2 500 u/ml. The procedure:
Immunophenotyping by flow cytometry. NK cell expression of activating receptors before and after cell culture was measured by flow cytometry in 10 CMML patients and 10 healthy age-matched controls. In these experiments, cells were cultured in 96-well plates for 3 days at a concentration of 1×10^6 cells per well in 200 μl with IL-2 (500 u/ml) present. Cells were then stained on days 1 and day 3 and analyzed using a 4-laser BD LSRFortessa SORP flow cytometer. NK cells were defined as CD37CD56+ cells. The analyses comprised the following receptors of relevance to NK cell activation or maturation: NKp30-PE (clone: AF29-4D12), NKp80-APC (clone: 4A4.D10) and DNAM-1-PE-Cy7 (clone: DX11), all from Miltenyi Biotec. NKp46-PE (clone: 9E2), NKG2D-PE-Cy7 (clone: 1D11), LFA-1b-APC (clone: 6.7), CD57-FITC (clone: HNK-1) were from BD Pharmingen. 2B4-FITC were from R&D systems and NKG2C-Pacific Blue (clone: MM0488-9R17) from Novus Biologicals.

As for “IL-2: human recombinant IL-2 (aldesleukin)”, the “expression of NKp30, NKp46 and DNAM1” value is on record as “significantly enhanced”.
